This is a selection; strong and weak results do not stand in their true shares. The source made the active and inactive calls. No stated cut-off is given here; in the data, active means inhibition above about 22% (passing the limit was not always enough); inactive means the rest.

Sequences of proteins named here, by UniProt entry; tags and fusion partners are left off.
UniProt P35372, whole entry, looked up: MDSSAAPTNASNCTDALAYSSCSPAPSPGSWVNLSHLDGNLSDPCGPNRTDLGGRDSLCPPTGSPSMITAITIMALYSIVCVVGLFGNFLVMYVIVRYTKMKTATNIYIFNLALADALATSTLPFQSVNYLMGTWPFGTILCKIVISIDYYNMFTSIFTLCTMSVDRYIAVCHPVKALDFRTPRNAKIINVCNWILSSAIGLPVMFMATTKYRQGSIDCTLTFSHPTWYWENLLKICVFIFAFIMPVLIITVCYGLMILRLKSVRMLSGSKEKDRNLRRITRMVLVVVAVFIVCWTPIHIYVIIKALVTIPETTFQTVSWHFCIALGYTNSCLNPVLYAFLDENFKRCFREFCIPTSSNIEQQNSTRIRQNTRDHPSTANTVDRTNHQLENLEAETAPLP
UniProt P41143, whole entry, looked up: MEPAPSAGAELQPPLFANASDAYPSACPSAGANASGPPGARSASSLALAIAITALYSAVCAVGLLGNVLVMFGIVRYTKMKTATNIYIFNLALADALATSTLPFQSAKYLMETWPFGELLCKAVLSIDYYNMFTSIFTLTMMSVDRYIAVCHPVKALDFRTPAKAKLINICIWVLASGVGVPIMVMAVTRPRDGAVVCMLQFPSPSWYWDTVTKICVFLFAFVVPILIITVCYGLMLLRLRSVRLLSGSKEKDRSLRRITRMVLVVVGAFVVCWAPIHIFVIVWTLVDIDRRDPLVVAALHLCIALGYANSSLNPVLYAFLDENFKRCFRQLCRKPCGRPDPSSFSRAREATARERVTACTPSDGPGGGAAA

What is called inhibition is the drop in the measured response relative to a control, in per cent.

The assay has as its target Mu-type opioid receptor (Homo sapiens) + Delta-type opioid receptor (Homo sapiens) (UniProt P35372+P41143). Put plainly: OPRM1-OPRD1 heterodimer inverse agonism – cell-based, luminescence, primary screen (AID 504357).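 Further: 0% = cells with DMSO and 100% = wells without cells with DMSO.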 Conditions: cell-based MOR-DOR heterodimer luminescence, at 9.3 µM, active compounds read high.
`COc1ccc(N2CCN(C(=O)Cn3cnc4c3c(=O)n(C)c(=O)n4C)CC2)cc1`: the inhibition is inactive: 5.12%.

Take `COc1ccc(CN(C)C(=O)Cn2cnc3c(OCc4ccccc4)ncnc32)cc1OC`: the inhibition is inactive: 14%.

Regarding `CC(C)[C@H](NC(=O)N1CCn2c1nc1ccccc12)C(=O)NCc1ccccc1Cl`, the inhibition was inactive: -2.86%.

Regarding `O=C(Cn1cnc2ccccc21)NCc1ccccc1`, the inhibition is inactive: 5.36%.

For `CCOc1cccc(N2C(=O)CC(n3cnc4ccccc43)C2=O)c1` (stereo not given), the inhibition was inactive: 8.32%.

In the case of `Cc1ccc2c(c1)C1CN(C)CCC1N2C(=O)c1ccccc1NS(=O)(=O)c1ccc(F)cc1` (stereo not given), the inhibition is inactive: 5.3%.

As to `O=C(Cn1c(NCCO)nc2ccccc21)NCC(F)(F)F`, the inhibition is inactive: 13.4%.

With `CC(=O)Nc1ccc([As](=O)(O)O)cc1`, the inhibition is inactive: 1.37%.

`Cn1c(=O)c2ncn(CC(=O)Nc3ccc4c5c(cccc35)CC4)c2n(C)c1=O`: the inhibition is inactive: 1.85%.

Take `O=C(O)c1ccccc1[As](=O)(O)O`: the inhibition was inactive: 11.8%.

Turning to `O=C(Cn1c(COc2ccccc2)nc2ccccc21)Nc1cc(Cl)cc(Cl)c1`, the inhibition is inactive: -3.17%.

With `Nc1ncnc2c1ncn2C1OC(CO)C(O)C1N` (stereo not given), the inhibition is inactive: 9.11%.

Consider `CC(C)CSc1nc2ccccc2n1CC(N)=O`, for which the inhibition is inactive: 6.33%.

On to `C[C@H](O)[C@@H]1C(=O)N2CCc3ccc(N4CCOCC4)cc3[C@@H]2C[C@@H]1N(C)C(=O)Nc1ccccc1`, for which the inhibition was inactive: 14.2%.

On to `CN1C(=O)Cn2c1nc1ccccc12`, for which the inhibition was inactive: 10.3%.

As for `CC(C)C[C@H](NC(=O)N1CCn2c1nc1ccccc12)C(=O)N1CCCCC1`, the inhibition was inactive: 7.6%.

As for `O=C(Cn1cnc2ccccc21)Nc1cccc([N+](=O)[O-])c1`, the inhibition was inactive: 13.4%.

For `Nc1cccc2ccc([As](=O)(O)O)cc12`, the inhibition is inactive: -22.7%.

Regarding `Cn1c(=O)c2c(nc(NCc3ccccc3)n2CC(=O)NCc2ccccc2)n(C)c1=O`, the inhibition was inactive: 5.23%.

`O=C(CCCCCNC(=O)N1CCn2c1nc1ccccc12)N[C@@H](Cc1ccccc1)C(=O)O`: the inhibition was inactive: 10.6%.

`Cn1c(=O)n(CC(=O)NCc2cccnc2)c2ccccc21`: the inhibition was inactive: 14.1%.

Turning to `O=C(Cn1c(SCC(=O)N2CCc3ccccc3C2)nc2ccccc21)NC1CCCC1`, the inhibition was inactive: 13.9%.

In the case of `CC1CCCCN1C(=O)CSc1nc2ccccc2n1CC(=O)N1CCc2ccccc21` (stereo not given), the inhibition was inactive: 7.37%.

Regarding `CCN(CC)CCNC(=O)Cn1c(-c2ccccn2)nc2ccccc21`, the inhibition was inactive: -2.66%.

Regarding `CCC(=O)N(c1ccccc1)C1CCCCC1`, the inhibition was inactive: 19.1%.

Turning to `CCN(N=Nc1nonc1N)c1nonc1N`, the inhibition was inactive: 15.1%.

Take `CC(C)(C)NC(=O)Cn1c(SCC(=O)NC2CCCC2)nc2ccccc21`: the inhibition is inactive: 2.03%.

Regarding `CCN(CC)CCn1c(=N)n(CCOc2ccccc2)c2ccccc21`, the inhibition was inactive: 10.3%.

In the case of `CCC(=O)Nc1nnc(/C=C/c2ccc(OC)cc2)s1`, the inhibition is inactive: 4.69%.

For the compound `Nc1nonc1-c1nc2ccccc2n1CC(=O)Nc1ccccc1`, the inhibition was inactive: 11.8%.

Turning to `CC(=O)c1ccc(NC(=O)C2CC(=O)Nc3nc4ccccc4n32)cc1` (stereo not given), the inhibition is inactive: 19.6%.

For the compound `CC1CN(Cc2nc3c(c(=O)[nH]c(=O)n3C)n2CCN2CCOCC2)CC(C)O1` (stereo not given), the inhibition was inactive: 7.6%.

Consider `O=C(Nc1ccc2c(c1)nc1n2CCN(Cc2ccccc2)C1)c1cccs1`, for which the inhibition was inactive: 4.52%.

Consider `O=C(CCC(=O)Nc1ccccc1)N/N=C/C=C/c1ccccc1`, for which the inhibition is inactive: -3.02%.

Take `COc1ccc(N2C(=O)CC(n3c(CCCCO)nc4ccccc43)C2=O)cc1` (stereo not given): the inhibition was inactive: 3.19%.

Take `O=C(Cn1c(-c2cncs2)nc2ccccc21)NCc1ccccc1`: the inhibition was inactive: 15.1%.

For `Cn1c(=O)c2c(ncn2CC(N)=O)n(C)c1=O`, the inhibition is inactive: 5.05%.

In the case of `Cc1ccccc1NC(=O)Cn1cnc2c1c(=O)n(C)c(=O)n2C`, the inhibition is inactive: 4.12%.

In the case of `COc1ccc(CC(=O)N2CCC(Nc3nc4ccccc4n3Cc3ccc(F)cc3)CC2)cc1`, the inhibition is inactive: 9.49%.

`O=C(Cn1c(COc2ccccc2)nc2ccccc21)Nc1cc(Cl)ccc1Cl`: the inhibition was inactive: -11.5%.

In the case of `COc1ccc(CCNC(=O)Cn2c(-c3nonc3N)nc3ccccc32)cc1OC`, the inhibition was inactive: 8.22%.

On to `O=C(NCCn1c(C(F)(F)F)nc2ccccc21)[C@H]1CCCN1c1nc(CN2CCCCC2)cs1`, for which the inhibition is inactive: -1.29%.

With `CC(C)NC(=O)Cn1c(SCC(=O)N2CCCCCC2)nc2ccccc21`, the inhibition was inactive: 7.76%.

In the case of `CN(CC(=O)Nc1cccc(F)c1)C(=O)Cn1cnc2c1c(=O)n(C)c(=O)n2C`, the inhibition is inactive: 9.84%.

For the compound `CCCCOC(=O)Cn1c(=N)n(CCN2CCOCC2)c2ccccc21`, the inhibition is inactive: 10.6%.

In the case of `CN1CCCC(OC(=O)C(c2ccccc2)c2ccccc2)C1` (stereo not given), the inhibition is inactive: 5.47%.

With `Clc1ccc(Cl)c(NC2=NCC(CBr)S2)c1` (stereo not given), the inhibition is inactive: 2.74%.

On to `O=C(Cn1c(NCCO)nc2ccccc21)NCCc1ccccc1`, for which the inhibition is inactive: -4.36%.

As for `Cc1ccc(/C=N/NC(=O)Cn2cnc3ccccc32)cc1`, the inhibition was inactive: 15.7%.

With `CCOc1cc(N2CCOCC2)c(OCC)cc1NC(=O)Cn1cnc2c(=O)n(C)c(=O)n(C)c21`, the inhibition was inactive: 10.3%.

As for `COc1ccc(CNC(=O)CCCCCNC(=O)N2CCn3c2nc2ccccc23)cc1`, the inhibition is inactive: 14%.

Turning to `COc1ccc(C(=O)CSc2nc3ccccc3n2CC(=O)NC(C)(C)C)cc1`, the inhibition was inactive: 4.76%.

On to `O=C1Cn2c(nc3ccccc32)N1c1cccc(C(F)(F)F)c1`, for which the inhibition was inactive: -12.1%.

Regarding `CN1CC[C@]2(CCN3CCc4c(oc5ccccc45)[C@@H]3C2)N(C)C1=O`, the inhibition is inactive: 8.5%.

Consider `COc1ccccc1OP(=O)(Nc1ccc(C)cn1)Oc1ccccc1OC`, for which the inhibition was inactive: 17.2%.

Take `CN1CCN(CCN2CCn3c2nc2ccccc23)CC1`: the inhibition was inactive: 12.9%.

Take `CCC(C)(C)n1nnnc1CN1CCC(n2c(C)nc3cc(C(F)(F)F)ccc32)CC1`: the inhibition is inactive: -21.5%.

As to `Cc1nc2cc(F)ccc2n1C1CCN(Cc2nnnn2CCc2ccccc2)CC1`, the inhibition is inactive: 15.3%.

In the case of `Cc1ccc(N/C(=N/P(=O)(N2CCOCC2)N2CCOCC2)N2CCOCC2)cc1`, the inhibition was inactive: 0.44%.

As to `O=C(Cn1cnc2c(NCc3ccccc3)ncnc21)NCc1ccc2c(c1)OCO2`, the inhibition is inactive: 13.8%.

Source of the values: PubChem BioAssay AID504357 (The Scripps Research Institute Molecular Screening Center, 2011).
